Assay results reported in patent publication US9809583B2 (priority 2014, dated 2017).

By UniProt entry, the sequences of proteins in these tests, tags left out. Where a name states a change or a piece, a line headed by the entry shows the natural chain unless it says otherwise.
UniProt P10275: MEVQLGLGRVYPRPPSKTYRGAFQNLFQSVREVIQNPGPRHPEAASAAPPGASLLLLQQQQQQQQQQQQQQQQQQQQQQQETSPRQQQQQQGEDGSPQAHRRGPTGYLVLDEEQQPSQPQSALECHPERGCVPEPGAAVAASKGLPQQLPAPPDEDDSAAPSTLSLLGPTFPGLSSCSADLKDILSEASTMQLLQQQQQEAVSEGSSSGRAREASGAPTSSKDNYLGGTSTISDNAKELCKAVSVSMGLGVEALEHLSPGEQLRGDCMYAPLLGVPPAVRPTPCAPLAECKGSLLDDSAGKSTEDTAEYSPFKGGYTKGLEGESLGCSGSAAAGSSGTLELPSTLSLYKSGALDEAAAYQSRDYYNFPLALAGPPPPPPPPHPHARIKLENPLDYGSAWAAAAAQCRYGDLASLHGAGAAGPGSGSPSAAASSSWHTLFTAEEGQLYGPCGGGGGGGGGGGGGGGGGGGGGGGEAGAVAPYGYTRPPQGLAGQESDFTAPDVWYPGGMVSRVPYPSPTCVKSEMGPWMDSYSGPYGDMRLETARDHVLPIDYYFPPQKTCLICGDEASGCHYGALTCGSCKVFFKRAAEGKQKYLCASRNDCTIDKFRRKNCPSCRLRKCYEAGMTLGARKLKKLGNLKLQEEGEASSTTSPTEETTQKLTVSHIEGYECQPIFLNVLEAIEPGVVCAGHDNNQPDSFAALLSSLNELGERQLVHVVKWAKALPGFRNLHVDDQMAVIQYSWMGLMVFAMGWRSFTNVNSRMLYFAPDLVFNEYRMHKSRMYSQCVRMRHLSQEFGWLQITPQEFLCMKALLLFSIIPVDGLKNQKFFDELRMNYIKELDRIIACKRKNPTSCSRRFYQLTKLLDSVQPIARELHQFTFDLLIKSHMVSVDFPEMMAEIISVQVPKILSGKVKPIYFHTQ

Biological target: androgen receptor (hAR) (Homo sapiens (Human), UniProt P10275)
Assay type: binding
Conditions: 1 nM [3H]MIB, hAR-transfected COS-7 cells, 2 hours; read-out: IC50 [nM] (mean ± SE)
Protocol: In order to examine binding ability of the agonists of the present invention to androgen receptors, the following in-vitro experiment was performed. African green monkey kidney fibroblast-like cell line, COS-7 (ATCC, #CRL-1651) was seeded in a 48-well plate at a density of 2.5×10^4 cells/well, and cultured for 24 hours. Then, a plasmid hAR-mixed medium was added thereto. The transfected cell line was treated with 1 nM of [3H]MIB and 0.1˜10,000 nM of SARM derivatives, and then allowed to react for 2 hours. Thereafter, the cells were lysed and the amount of [3H]MIB bound to the intracellular androgen receptors was measured using a radiation dosimeter. The results were shown in Table 4 as 50% inhibition concentration (IC50) relative to that of an untreated control group.

Q: For `N#Cc1ccc(N2C[C@@H](CO)O[C@@H]2C(F)(F)F)cc1C(F)(F)F` [Example 1, 4-((2R,5S)-5-(hydroxymethyl)-2-(trifluoromethyl)oxazolidin-3-yl)-2-(trifluoromethyl)benzonitrile], which IC50 is on record?
A: 64.4 nM
